From ChEMBL document CHEMBL1177670 (Bioorg Med Chem, 2010)

Amino acid sequences for entries named in this document (tags omitted).
UniProt P21917, whole entry: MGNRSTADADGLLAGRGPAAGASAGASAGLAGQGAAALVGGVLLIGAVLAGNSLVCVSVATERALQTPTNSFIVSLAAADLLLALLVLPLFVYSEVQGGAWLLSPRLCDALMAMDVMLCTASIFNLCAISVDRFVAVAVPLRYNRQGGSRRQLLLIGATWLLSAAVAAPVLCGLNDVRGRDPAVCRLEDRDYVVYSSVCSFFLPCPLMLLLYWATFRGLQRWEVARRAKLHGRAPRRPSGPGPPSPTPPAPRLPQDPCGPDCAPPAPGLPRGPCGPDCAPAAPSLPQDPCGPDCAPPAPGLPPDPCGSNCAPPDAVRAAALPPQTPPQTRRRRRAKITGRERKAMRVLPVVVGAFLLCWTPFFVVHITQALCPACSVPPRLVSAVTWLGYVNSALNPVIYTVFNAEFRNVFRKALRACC
UniProt Q60492, whole entry: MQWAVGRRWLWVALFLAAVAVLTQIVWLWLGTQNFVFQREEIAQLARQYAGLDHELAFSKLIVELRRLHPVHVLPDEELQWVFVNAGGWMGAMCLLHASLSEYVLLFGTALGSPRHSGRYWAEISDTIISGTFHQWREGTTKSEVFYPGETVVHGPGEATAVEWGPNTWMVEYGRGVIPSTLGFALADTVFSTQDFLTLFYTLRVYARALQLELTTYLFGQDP

These molecules were tested against D(4) dopamine receptor (Homo sapiens, UniProt P21917) (assay: biochemical).

**Q.** With `OC1(c2ccccc2)CCN(Cc2cc3ccccc3s2)CC1` as the molecule, how does the Ki read?
**A.** 377 nM

These molecules were tested against Sigma non-opioid intracellular receptor 1 (Cavia porcellus, UniProt Q60492) (assay: biochemical).

**Q.** How did the Ki turn out when `OC1(c2ccc(I)cc2)CCN(Cc2cc3ccccc3o2)CC1` was run?
**A.** 1.41 nM

**Q.** How did the Ki turn out when `OC1(c2ccc(Br)cc2)CCN(Cc2c[nH]c3ncccc23)CC1` was run?
**A.** 15.1 nM

**Q.** With `OC1(c2ccc(I)cc2)CCN(Cc2coc3ccccc23)CC1` as the molecule, how does the Ki read?
**A.** 0.51 nM

**Q.** `OC1(c2ccc(Br)cc2)CCN(Cc2cc3ccccc3o2)CC1` was tested. Which Ki did it give?
**A.** 2.45 nM

**Q.** Which Ki does the source give for `OC1(c2ccc(Br)cc2)CCN(Cc2coc3ccccc23)CC1` here?
**A.** 0.59 nM

**Q.** `OC1(c2ccc(I)cc2)CCN(Cc2c[nH]c3ccccc23)CC1` was tested. Which Ki did it give?
**A.** 2 nM

**Q.** With `COc1cccc2[nH]cc(CN3CCC(O)(c4ccc(I)cc4)CC3)c12` as the molecule, how does the Ki read?
**A.** 881 nM

**Q.** For `COc1ccc2[nH]cc(CN3CCC(O)(c4ccccc4)CC3)c2c1`, which Ki is on record?
**A.** 1530 nM

**Q.** How did the Ki turn out when `OC1(c2ccc(Br)cc2)CCN(Cc2c[nH]c3ccc(OCCF)cc23)CC1` was run?
**A.** 227 nM
